Laboratory results as given in patent US4956294A, “Culture of Streptoverticillium synroense for producing an antibacterial” (Merck & Co., Inc., priority 1989, dated 1990).

Assay: Solubility in water
Conditions: for dosing solutions

C[C@H](CNC(=O)[C@H]1N=C(c2cccc(O)c2O)O[C@@H]1C)C(=O)N[C@@H]1CCCN(O)C1=O [L-654,040, 2-(2,3-dihydroxyphenyl)-4,5-dihydro-N-[3-[(1-hydroxy-2-oxo-3(R)-piperidinyl)-amino]-2(R)-methyl-3-oxopropyl]-5R-methyl-4S-oxazolecarboxamide]
solubility in water: prior heating of L-654,040 in a boiling water bath was necessary for solubility
